Antibody variant affinities, Ab-14 light chain, assay 1

Target: peptide PDVDLGDISGINAS, taken from heptad repeat 2 (HR2) of SARS-CoV-2 spike.

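The starting antibody came from a phage panning campaign against this peptide. Library AAYL50 holds single substitutions and randomly drawn double and triple substitutions in the CDRs. The scFvs were displayed on barcoded MATa yeast, the peptide on MATalpha yeast. After mating in shaken culture at 30 °C for 16 h, diploids were selected and their barcode pairs sequenced. Scores were corrected for input abundance and mapped to Kd with protein pairs of known affinity run in the same pool. There are three technical replicates.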

Each scFv is VH, the linker GGGGSGGGGSGGGGS, VL, as in the parent Ab-14, and differs from it in the CDRs of the light chain only.
VH: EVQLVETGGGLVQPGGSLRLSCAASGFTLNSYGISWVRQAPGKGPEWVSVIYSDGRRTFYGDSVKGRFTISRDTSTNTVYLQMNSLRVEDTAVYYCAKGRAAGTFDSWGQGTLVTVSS
VL: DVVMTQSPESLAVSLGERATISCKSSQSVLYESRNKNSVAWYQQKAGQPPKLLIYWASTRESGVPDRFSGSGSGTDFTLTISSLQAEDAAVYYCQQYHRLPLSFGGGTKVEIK

The parent's light chain CDRs are KSSQSVLYESRNKNSVA, WASTRES, QQYHRLPLS; each variant's own CDRs replace them letter for letter. Scale: log10 of Kd in nM, estimated from mating counts; low values are strong binders. Averages over replicates are reported, and they cover detected replicates only. Where no diploid with the target was found in that replicate, the entry reads "nd": below detection, most likely a poor binder, though not proof of it. Three control strains display no target. For library AAYL50, 18% of the pairings with them gave a signal, with a median of 4.19 and one signal in twenty below 2.99, so weak values seen in few replicates may be background. For each scFv, signals with the empty controls are counted beside the result, with their mean in brackets.

CDR-L1 | CDR-L2 | CDR-L3 | replicates, log10 nM | log10 Kd (nM), mean | empty controls
KSSQSVLYESRGKNSVQ | WASTRES | QQMHRLPLS | nd nd nd | nd | 2/9 (3.56)
KSQQSVLYESNNKNAVA | WASTRES | QQYHRLPLS | 0.48 0.54 0.37 | 0.46 | 2/9 (5.51)
KSRQSVLYESRNKNSVA | WASTREW | QQYHTLPLS | 1.89 1.84 2.52 | 2.08 | 2/9 (4.08)
KSSQSVHYWSRNKNSVA | WVSTRES | QQYHRLPLS | 2.31 2.35 2.72 | 2.46 | 0/9
KSSQYVLYESRHKNSVA | WASTRES | QQYHRLPIS | 2.56 1.96 1.89 | 2.13 | 0/9
KSSQSVLYESRNQQSVA | WASTREL | QQYHRLPLS | 0.94 1.03 1.04 | 1.00 | 2/9 (5.32)
KSSQSVLYESRNLNSVA | WASTRES | QQKHRLQLS | nd nd 4.75 | 4.75 | 4/9 (4.09)
KSSQGVLIESRNKNYVA | WASTRES | QQYHRLPLS | nd nd nd | nd | 0/9
KSSQSVLYESRNKNSVA | WAATRES | QQYHWLPLF | nd 4.70 nd | 4.70 | 2/9 (3.52)
KSSQSVLYESRNKVSVA | WISTRES | QQYHRGPLS | 2.59 nd nd | 2.59 | 0/9
KSSQSVLMESRFKNSVA | WASTRES | QFYHRLPLS | nd 3.66 nd | 3.66 | 3/9 (3.66)
KSFQTVLQESRNKNSVA | WASTRES | QQYHRLPLS | 1.00 1.35 1.26 | 1.21 | 0/9
KSSQSVLYESRNKNSVH | WASTRES | AQYWRLPLS | nd 3.98 nd | 3.98 | 1/9 (4.07)
KSSQYVLYESRNKNSVA | WASTRES | QVYHRLPIS | 5.23 4.59 nd | 4.91 | 2/9 (3.59)
KSSQSVLYESDNKNSWA | WASTRES | QQYHRLPLS | 2.70 nd nd | 2.70 | 1/9 (3.59)
KSSQSVLDESRNKNSVA | WASLRES | QQYKRLPLS | 0.26 0.55 0.33 | 0.38 | 1/9 (3.63)
KSIQSVLYESRIKNSVA | WASTRES | QQEHRLPLS | nd nd nd | nd | 2/9 (4.35)
KSSQSVLYESRNKNSVA | WLSTRES | QQYMDLPLS | nd nd nd | nd | 0/9
KSSQSVLLESRNKNSVA | WASNRES | QQYHRLPLG | 2.19 1.87 1.88 | 1.98 | 2/9 (3.79)
ESSQSVLYESRRKNSVA | YASTRES | QQYHRLPLS | 2.34 2.60 2.66 | 2.53 | 2/9 (3.40)
KSSQSVLYESRNKNRVA | WASTRES | FQYHRLPLS | 4.40 4.53 nd | 4.47 | 3/9 (4.25)
KSSQSVLYESQNKNSVA | WASTRES | QQHHRLVLS | 0.46 0.71 0.46 | 0.54 | 0/9
KSSQSVLYESRNKNSQA | MASTRES | QQYHCLPLS | nd 4.78 nd | 4.78 | 0/9
KSSQSILYESRPKNSVA | WASTRES | QQYHRLPLS | 1.35 1.51 1.69 | 1.52 | 1/9 (4.13)
KSSQSMLYESRNKNSVF | WASTRES | QQYHRLPHS | nd nd 5.22 | 5.22 | 0/9
KSSRSVLYESRNKNSVA | WASTRES | ICYHRLPLS | nd nd nd | nd | 1/9 (3.20)
KSDQSVLYESRKKNSVA | WASTREE | QQYHRLPLS | 0.58 0.78 0.68 | 0.68 | 4/9 (4.08)
ASSQLVLPESRNKNSVA | WASTRES | QQYHRLPLS | -0.23 0.43 -0.05 | 0.05 | 0/9
RSVQSVLYESRNKNSVA | WASTRES | QQYHRLCLS | nd nd nd | nd | 3/9 (3.86)
KSFQSVLYESRNENVVA | WASTRES | QQYHRLPLS | nd nd nd | nd | 0/9
KSSQAVLYESRNQNSVA | AASTRES | QQYHRLPLS | 0.17 0.46 0.29 | 0.31 | 2/9 (3.74)
KSSQSVLYESRNKNSVM | WASNRES | QQSHRLPLS | 4.58 nd 4.87 | 4.72 | 2/9 (4.33)
KSSMSVLYESRYKNSVA | WASTRES | QQYHPLPLS | nd nd nd | nd | 0/9
KSWQSVLYESRNKMSVA | WASTRES | QNYHRLPLS | nd nd nd | nd | 1/9 (4.29)
KSSQSVLYEYPNKNSVA | WASTRES | QQAHRLPLS | nd 3.81 nd | 3.81 | 0/9
KSSQSVLYESRNKNSVA | WASTRER | QQYHPLPLS | 1.49 1.46 1.53 | 1.49 | 1/9 (3.57)
KSSQSVLYESRNKNSVA | WASTRES | QQNHRLALY | nd nd nd | nd | 0/9
NSSQSILYESRNKNSVA | WASTRES | QQYHRLKLS | 1.96 2.00 1.98 | 1.98 | 2/9 (3.41)
KSSQSVLYESRNKNSVA | WKDTRES | QQYHRLPLS | 2.29 1.92 1.87 | 2.03 | 1/9 (3.45)
KSSQSVLYESRNKNSVA | WASTYES | QQYTRLPLS | nd nd nd | nd | 1/9 (4.43)
KDSQSVLYESWNKRSVA | WASTRES | QQYHRLPLS | 1.23 1.62 1.58 | 1.48 | 2/9 (3.87)
KSSQSVWYESRNKNSVA | WDSTIES | QQYHRLPLS | 3.23 3.42 3.26 | 3.30 | 2/9 (4.69)
KSSQNVLYESRNKNSVA | WASTRES | QQYHFLPLW | 1.23 1.33 1.32 | 1.29 | 1/9 (5.66)
KSSQSVLYEGRNKSSVA | WAGTRES | QQYHRLPLS | nd nd 0.85 | 0.85 | 0/9
KSSQSVLYESRNKNSVA | WASTFEQ | QQYHRLPQS | nd nd nd | nd | 0/9

5 of these entries, quoted again:

| CDR-L1 | CDR-L2 | CDR-L3 | replicates, log10 nM | log10 Kd (nM), mean | empty controls |
|---|---|---|---|---|---|
| KSSQSVLYESRNLNSVA | WASTRES | QQKHRLQLS | nd nd 4.75 | 4.75 | 4/9 (4.09) |
| KSSQSVLYESRNKNSVA | WASTRER | QQYHPLPLS | 1.49 1.46 1.53 | 1.49 | 1/9 (3.57) |
| KSSQSVLYESQNKNSVA | WASTRES | QQHHRLVLS | 0.46 0.71 0.46 | 0.54 | 0/9 |
| KSSQSVLYESRNKVSVA | WISTRES | QQYHRGPLS | 2.59 nd nd | 2.59 | 0/9 |
| KSSQSVLYESRNKNSQA | MASTRES | QQYHCLPLS | nd 4.78 nd | 4.78 | 0/9 |

From the AlphaSeq antibody data of Engelhart et al. 2022 (doi:10.1038/s41597-022-01779-4), copy in the FLAb collection.